Our source for the % of activity left with 100 nM in assay 04 Oct. 2006 and % of activity left with 100 nM in assay 29 Aug. 2006 values is patent US8114968.

Chains of the proteins cited; added tags and fusions are not shown. Residues count along the entry.
UniProt P39900, 106-470 limits assumed: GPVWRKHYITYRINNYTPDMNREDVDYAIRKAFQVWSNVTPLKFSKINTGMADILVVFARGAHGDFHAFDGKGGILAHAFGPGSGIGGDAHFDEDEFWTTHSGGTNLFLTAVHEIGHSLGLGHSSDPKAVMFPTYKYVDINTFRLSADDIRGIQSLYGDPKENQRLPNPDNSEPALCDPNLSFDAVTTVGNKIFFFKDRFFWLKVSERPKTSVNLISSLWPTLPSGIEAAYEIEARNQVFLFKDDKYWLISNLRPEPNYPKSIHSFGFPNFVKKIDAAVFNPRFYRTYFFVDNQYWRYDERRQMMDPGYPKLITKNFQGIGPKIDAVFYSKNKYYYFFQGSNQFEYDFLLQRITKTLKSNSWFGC

For the assay, the target named is human MMP-12 (UniProt P39900). As to the kind of experiment: cell-based or functional assay.

539B-M0006-B10 (Fab): the % of activity left with 100 nM in assay 04 Oct. 2006 was found to be 68.9% and the % of activity left with 100 nM in assay 29 Aug. 2006 worked out at 65.5%.
